Earlier results, collected in article PMC5653298.

Biological target: Mesothelin (Homo sapiens) (UniProt Q13421)

For Amatuximab, the Kd is listed as 1.5 nM.
